Antibody variant affinities, Ab-95 light chain, assay 2

From the AlphaSeq antibody data of Engelhart et al. 2022 (doi:10.1038/s41597-022-01779-4), copy in the FLAb collection.

Target: peptide PDVDLGDISGINAS, taken from heptad repeat 2 (HR2) of SARS-CoV-2 spike.

Each scFv is VH, three GGGGS repeats, VL, as in the parent Ab-95, and differs from it in the CDRs of the light chain only.
VH: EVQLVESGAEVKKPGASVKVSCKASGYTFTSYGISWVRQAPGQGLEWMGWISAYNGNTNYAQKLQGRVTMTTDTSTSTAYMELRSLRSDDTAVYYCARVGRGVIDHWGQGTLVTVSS
VL: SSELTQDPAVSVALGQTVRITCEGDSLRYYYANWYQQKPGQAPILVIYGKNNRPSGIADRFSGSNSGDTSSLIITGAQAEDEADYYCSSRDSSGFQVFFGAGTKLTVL

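The parent was found by panning a naive human phage display library on the peptide. The library (AAYL52) carries one to three amino acid substitutions per variant, with no insertions or deletions. The scFvs were displayed on barcoded MATa yeast, the peptide on MATalpha yeast. Binding brings cells together so that they mate, and sequencing counts the barcode pairs among the diploids. Scores were corrected for input abundance and mapped to Kd with protein pairs of known affinity run in the same pool. Each pool was mated in three replicate cultures.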

Changes read parent residue, position, new residue, counted from the first residue of the VL shown. This list gathers variants with a substitution at S89 (VL, numbered from residue 1). The Kd shown is the geometric mean over detected replicates; a lower Kd is a better binder. "no signal" marks a missing value. The strain was present, yet no cells mated with the target were sequenced in any replicate, which points to weak or no binding. Background: pairings of library AAYL52 with three empty control strains gave a value in 28% of cases (median 8.2 µM, 5th percentile 800 nM). Values in that range, when seen in few replicates, are hard to tell from nonspecific mating. The control count says in how many pairings with the empty strains this scFv gave a signal. For reference, the parent read 200 nM as the reference entry and 180 nM as a member of this library.

- S89C: 98 nM (3 of 3 replicates; controls 3 of 9)
- S89A: 24 nM (3 of 3 replicates; controls 1 of 9)
- L27T+N51I+S89G: no signal (0 of 3 replicates; controls 3 of 9)
- S26E+S89N+R90H: 4.1 µM (2 of 3 replicates; controls 5 of 9)
- D25E+G49R+S89M: 2.5 µM (1 of 3 replicates; controls 1 of 9)
- G24W+S88L+S89I: 13 µM (1 of 3 replicates; controls 4 of 9)
- S26V+S89H+R90A: 1.3 µM (2 of 3 replicates; controls 1 of 9)
- Y30H+S89A: 6.8 nM (3 of 3 replicates; controls 7 of 9)
- P54D+S89Q+S92C: 3.9 µM (3 of 3 replicates; controls 3 of 9)
- S88Q+S89K+Q96S: no signal (0 of 3 replicates; controls 3 of 9)
- Y29M+S89H+R90E: no signal (0 of 3 replicates; controls 0 of 9)
- P54S+S89C+V97R: 13 µM (2 of 3 replicates; controls 3 of 9)
- N51W+S89M+Q96V: 32 µM (1 of 3 replicates; controls 1 of 9)
- E23W+Y31Q+S89T: 140 nM (3 of 3 replicates; controls 2 of 9)
- L27G+S89Y: 5.4 µM (3 of 3 replicates; controls 5 of 9)
- S89M+Q96L: no signal (0 of 3 replicates; controls 1 of 9)
- S26P+A32S+S89E: 14 µM (3 of 3 replicates; controls 2 of 9)
- Y30I+S89R+F98M: 2.0 µM (1 of 3 replicates; controls 0 of 9)
- L27V+S88R+S89T: 1.4 µM (3 of 3 replicates; controls 1 of 9)
- A32N+S89M+S93M: 1.3 µM (2 of 3 replicates; controls 2 of 9)
- A32H+N51D+S89D: 10 µM (2 of 3 replicates; controls 5 of 9)
- A32K+S89L+G94A: 28 µM (2 of 3 replicates; controls 3 of 9)
- G24K+S26T+S89C: 5.2 µM (1 of 3 replicates; controls 1 of 9)
- S89G+R90M+V97Y: 420 nM (3 of 3 replicates; controls 3 of 9)
- E23K+K50D+S89I: 91 µM (1 of 3 replicates; controls 4 of 9)
- Y29A+S89K+D91G: 940 nM (1 of 3 replicates; controls 2 of 9)
- R28D+P54I+S89G: 110 µM (1 of 3 replicates; controls 2 of 9)
- D25L+Y30K+S89G: 540 nM (3 of 3 replicates; controls 2 of 9)
- L27A+P54R+S89H: no signal (0 of 3 replicates; controls 0 of 9)
- S26M+S89V+Q96N: 260 nM (3 of 3 replicates; controls 1 of 9)
- K50L+S89I+V97S: 3.0 µM (1 of 3 replicates; controls 3 of 9)
- Y30T+G49F+S89W: no signal (0 of 3 replicates; controls 0 of 9)
- L27K+S89D+F95V: 17 µM (1 of 3 replicates; controls 0 of 9)
- N52Q+S89A+S93L: 240 nM (3 of 3 replicates; controls 1 of 9)
- E23K+S89P: 37 µM (2 of 3 replicates; controls 2 of 9)
- L27K+R53K+S89Y: 220 µM (1 of 3 replicates; controls 2 of 9)
- R28G+S89M+S93A: 510 nM (3 of 3 replicates; controls 5 of 9)
- Y31C+S89I+S93G: 270 nM (3 of 3 replicates; controls 4 of 9)
- P54K+S89T: 3.3 µM (3 of 3 replicates; controls 2 of 9)
- S26M+S89P+S92T: 15 µM (2 of 3 replicates; controls 1 of 9)
- S89F+G94H+Q96C: 410 nM (3 of 3 replicates; controls 2 of 9)
- G49P+K50M+S89D: no signal (0 of 3 replicates; controls 2 of 9)
- E23T+G49T+S89Y: 9.0 µM (1 of 3 replicates; controls 2 of 9)
- N52G+S89G+F98C: 12 µM (1 of 3 replicates; controls 1 of 9)
- D25Q+N33Q+S89K: 23 µM (3 of 3 replicates; controls 0 of 9)
- Y30D+G49D+S89Q: 2.8 µM (2 of 3 replicates; controls 1 of 9)